By IC50 is commonly meant the concentration that gives 50% inhibition.

Chains of the proteins cited; added tags and fusions are not shown. Lines headed by an entry give the natural chain unless they say otherwise; changes in a name come on top. Residues count along the entry.
UniProt P10632, whole entry: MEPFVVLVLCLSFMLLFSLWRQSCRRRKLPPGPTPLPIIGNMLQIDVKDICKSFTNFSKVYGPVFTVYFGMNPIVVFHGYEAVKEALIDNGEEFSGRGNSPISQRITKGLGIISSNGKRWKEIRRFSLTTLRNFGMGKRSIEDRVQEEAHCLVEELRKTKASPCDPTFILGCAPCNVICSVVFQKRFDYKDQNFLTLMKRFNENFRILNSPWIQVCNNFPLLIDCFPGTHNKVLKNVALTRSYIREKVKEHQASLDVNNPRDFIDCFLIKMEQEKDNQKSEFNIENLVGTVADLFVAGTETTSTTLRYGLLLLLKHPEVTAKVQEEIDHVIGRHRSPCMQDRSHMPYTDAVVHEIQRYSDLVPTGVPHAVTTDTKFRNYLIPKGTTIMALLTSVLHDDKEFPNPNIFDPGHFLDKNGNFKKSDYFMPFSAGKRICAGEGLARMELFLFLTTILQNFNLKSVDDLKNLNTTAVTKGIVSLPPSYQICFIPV
UniProt P05181: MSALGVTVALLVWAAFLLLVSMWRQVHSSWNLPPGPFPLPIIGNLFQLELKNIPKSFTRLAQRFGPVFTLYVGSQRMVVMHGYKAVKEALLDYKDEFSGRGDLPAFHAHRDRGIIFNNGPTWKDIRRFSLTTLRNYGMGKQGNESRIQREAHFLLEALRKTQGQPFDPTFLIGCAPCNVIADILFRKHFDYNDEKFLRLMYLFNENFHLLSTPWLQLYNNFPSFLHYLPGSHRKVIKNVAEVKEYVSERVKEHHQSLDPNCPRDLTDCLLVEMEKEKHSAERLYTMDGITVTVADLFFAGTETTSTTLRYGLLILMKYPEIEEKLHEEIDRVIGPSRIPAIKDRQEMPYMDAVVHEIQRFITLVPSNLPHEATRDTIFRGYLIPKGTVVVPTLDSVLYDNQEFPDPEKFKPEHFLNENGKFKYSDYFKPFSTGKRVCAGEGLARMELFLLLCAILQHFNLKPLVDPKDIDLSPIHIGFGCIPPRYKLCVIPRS
UniProt P05177, whole entry: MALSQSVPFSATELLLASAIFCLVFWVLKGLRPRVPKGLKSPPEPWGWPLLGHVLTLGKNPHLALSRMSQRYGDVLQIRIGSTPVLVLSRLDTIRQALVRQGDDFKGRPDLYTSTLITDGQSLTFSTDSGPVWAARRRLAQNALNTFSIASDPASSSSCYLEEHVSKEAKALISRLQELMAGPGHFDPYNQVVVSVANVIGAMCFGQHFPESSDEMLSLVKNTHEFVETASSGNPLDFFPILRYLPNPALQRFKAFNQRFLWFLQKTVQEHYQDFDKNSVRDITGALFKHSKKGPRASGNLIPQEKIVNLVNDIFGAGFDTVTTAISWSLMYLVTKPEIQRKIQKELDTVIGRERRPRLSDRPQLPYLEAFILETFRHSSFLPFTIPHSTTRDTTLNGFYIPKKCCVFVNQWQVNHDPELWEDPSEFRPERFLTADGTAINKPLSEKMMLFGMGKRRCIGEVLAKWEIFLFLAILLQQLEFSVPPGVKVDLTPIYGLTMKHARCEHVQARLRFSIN
UniProt P08684, 2-503: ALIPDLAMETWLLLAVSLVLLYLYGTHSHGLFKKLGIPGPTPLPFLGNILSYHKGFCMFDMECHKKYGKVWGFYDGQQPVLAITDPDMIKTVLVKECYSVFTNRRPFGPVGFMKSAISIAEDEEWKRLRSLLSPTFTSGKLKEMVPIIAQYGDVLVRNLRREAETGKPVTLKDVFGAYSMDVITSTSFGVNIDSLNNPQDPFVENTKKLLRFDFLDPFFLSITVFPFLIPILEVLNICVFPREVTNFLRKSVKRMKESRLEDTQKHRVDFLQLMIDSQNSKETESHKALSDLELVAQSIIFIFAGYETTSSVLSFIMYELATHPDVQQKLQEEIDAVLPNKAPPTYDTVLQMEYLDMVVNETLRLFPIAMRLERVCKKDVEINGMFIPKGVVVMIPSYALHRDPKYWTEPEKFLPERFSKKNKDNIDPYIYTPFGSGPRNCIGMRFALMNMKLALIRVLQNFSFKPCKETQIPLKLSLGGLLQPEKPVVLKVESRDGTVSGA

Where “and” joins values, the source holds several entries; their conditions need not be identical. Equal values may be shown once. Read-outs that look alike come from different tables or passages of the source. Some results are limits rather than exact numbers.

The target in one assay is T1, CYP2C8 (Homo sapiens, UniProt P10632).
T1 construct: pooled HLMs (0.25 mg/mL); tissue XenoTech H2630; host or cells: pooled human liver microsomes, mixed gender
In words: CYP2C8 inhibition in HLMs (amodiaquine). The class given is in vitro ADME. The following applies: for IC50 Shift, CYP2C8: RI/TDI fold shift. As for the experimental part: (§1) Lignans were first dissolved in methanol. […] All microsomal incubations were performed in triplicate.

Another assay deals with T2, UGT1A6 (Homo sapiens, UniProt P19224).
T2 construct: pooled HLMs (0.25 mg/mL); tissue XenoTech H2630; host or cells: pooled human liver microsomes, mixed gender
T2 sequence (P19224 27-532): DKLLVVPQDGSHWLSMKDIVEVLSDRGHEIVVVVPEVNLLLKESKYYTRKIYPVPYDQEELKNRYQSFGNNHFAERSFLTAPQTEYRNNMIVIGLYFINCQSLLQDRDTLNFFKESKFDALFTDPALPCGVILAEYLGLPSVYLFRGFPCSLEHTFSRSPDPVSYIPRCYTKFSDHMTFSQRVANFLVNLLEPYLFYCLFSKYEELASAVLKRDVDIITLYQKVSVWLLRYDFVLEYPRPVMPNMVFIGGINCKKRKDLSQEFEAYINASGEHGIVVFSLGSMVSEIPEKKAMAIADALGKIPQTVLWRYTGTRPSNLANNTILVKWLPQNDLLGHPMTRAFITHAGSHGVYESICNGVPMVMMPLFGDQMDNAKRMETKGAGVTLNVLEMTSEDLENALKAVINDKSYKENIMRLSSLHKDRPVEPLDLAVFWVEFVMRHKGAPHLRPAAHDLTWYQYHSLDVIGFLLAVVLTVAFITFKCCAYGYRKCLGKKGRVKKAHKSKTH
Nature of the assay: UGT1A6 inhibition in HLMs (N-acetylserotonin). The class given is in vitro ADME. The following applies: average in triplicate, read-out: IC50, UGT 1A6. The protocol: (§2) The inhibitory potential of six lignans on six UGT activities was evaluated using the previously developed cocktail method with slight modifications. […] These substrates are known to be selective for each UGT isoforms.

The target in a further assay is T3, CYP2E1 (Homo sapiens, UniProt P05181).
T3 construct: pooled HLMs (0.25 mg/mL); tissue XenoTech H2630; host or cells: pooled human liver microsomes, mixed gender
Nature of the assay: CYP2E1 inhibition in HLMs (chlorzoxazone). The class given is in vitro ADME. The following applies: for IC50 Shift, CYP2E1: RI/TDI fold shift. As for the experimental part: as §1

Another assay has as its target T4, CYP1A2 (Homo sapiens, UniProt P05177).
T4 construct: pooled HLMs (0.25 mg/mL); tissue XenoTech H2630; host or cells: pooled human liver microsomes, mixed gender
Nature of the assay: CYP1A2 inhibition in HLMs (phenacetin, cocktail, IC50 and IC50 shift). The assay is classed as in vitro ADME. As for the experimental part: as §1

The target of a further assay is CYP3A (Homo sapiens, UniProt P08684). In words: CYP3A inhibition in HLMs (midazolam, nifedipine, testosterone).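 As to all read-outs here: pooled HLMs at 0.25 mg/mL in phosphate buffer, inhibitor across 0–50 µM, 10 min reaction at 37 °C after preincubation, probe metabolite quantified by LC-MS/MS, triplicate incubations.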 The following applies: for IC50 Shift, CYP3A (midazolam) / IC50 Shift, CYP3A (nifedipine) / IC50 Shift, CYP3A (testosterone): RI/TDI fold shift.
Another assay has as its target T5, UGT1A3 (Homo sapiens, UniProt P35503).
T5 construct: pooled HLMs (0.25 mg/mL); tissue XenoTech H2630; host or cells: pooled human liver microsomes, mixed gender
T5 sequence (P35503 29-534): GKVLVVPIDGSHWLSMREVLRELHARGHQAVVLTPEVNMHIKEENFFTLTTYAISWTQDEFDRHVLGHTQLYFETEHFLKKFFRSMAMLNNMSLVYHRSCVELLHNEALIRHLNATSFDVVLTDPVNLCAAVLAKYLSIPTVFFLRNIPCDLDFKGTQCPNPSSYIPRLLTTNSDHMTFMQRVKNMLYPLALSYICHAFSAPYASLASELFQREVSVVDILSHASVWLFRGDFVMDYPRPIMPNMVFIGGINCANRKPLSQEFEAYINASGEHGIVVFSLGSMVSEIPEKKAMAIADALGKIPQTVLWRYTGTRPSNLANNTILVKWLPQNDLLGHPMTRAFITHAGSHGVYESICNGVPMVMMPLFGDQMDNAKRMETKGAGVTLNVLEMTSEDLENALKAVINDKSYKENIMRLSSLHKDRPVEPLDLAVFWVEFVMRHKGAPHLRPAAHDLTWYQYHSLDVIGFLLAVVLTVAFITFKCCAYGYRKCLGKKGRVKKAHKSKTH
In words: UGT1A3 inhibition in HLMs (chenodeoxycholic acid). The class given is in vitro ADME. The conditions noted are these: average in triplicate, read-out: IC50, UGT 1A3. The protocol:
as §2

The target in another assay is T6, UGT1A9 (Homo sapiens, UniProt O60656).
T6 construct: pooled HLMs (0.25 mg/mL); tissue XenoTech H2630; host or cells: pooled human liver microsomes, mixed gender
T6 sequence (O60656 26-530): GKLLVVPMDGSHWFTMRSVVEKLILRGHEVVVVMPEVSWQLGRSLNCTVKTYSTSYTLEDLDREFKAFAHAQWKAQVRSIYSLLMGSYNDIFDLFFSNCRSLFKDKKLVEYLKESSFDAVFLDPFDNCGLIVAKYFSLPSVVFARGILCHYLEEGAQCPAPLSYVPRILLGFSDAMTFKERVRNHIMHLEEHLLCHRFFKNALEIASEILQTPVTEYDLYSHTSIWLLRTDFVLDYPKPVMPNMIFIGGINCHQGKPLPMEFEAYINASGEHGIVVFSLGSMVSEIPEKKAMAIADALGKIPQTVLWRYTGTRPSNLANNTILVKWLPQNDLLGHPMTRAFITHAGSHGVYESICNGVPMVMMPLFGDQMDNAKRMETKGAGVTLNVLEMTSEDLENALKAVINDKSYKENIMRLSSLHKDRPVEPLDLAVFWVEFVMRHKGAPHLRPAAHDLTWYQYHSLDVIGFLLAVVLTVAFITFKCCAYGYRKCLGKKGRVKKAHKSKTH
Nature of the assay: UGT1A9 inhibition in HLMs (mycophenolic acid). The assay is classed as in vitro ADME. The following applies: average in triplicate, read-out: IC50, UGT 1A9. The protocol: as §2

Setting [1] is: 30 min pre-incubation with NADPH generating system, read-out: IC50 TDI, CYP2C8.
[2] abbreviates: reversible inhibition, read-out: IC50 RI, CYP2C8.
Setting [3] is: 30 min pre-incubation with NADPH generating system, read-out: IC50 TDI, CYP2E1.
The mark [4] stands for this setting: reversible inhibition, read-out: IC50 RI, CYP2E1.
Where [5] appears, read: 30 min pre-incubation with NADPH generating system, read-out: IC50 TDI, CYP1A2.
The mark [6] stands for this setting: reversible inhibition, no 30 min NADPH pre-incubation, read-out: IC50 RI, CYP1A2.
Where [7] appears, read: read-out: IC50, CYP3A activity (across probe substrates), reversible inhibition, probe substrate not singled out.
[8] abbreviates: read-out: IC50 RI, CYP3A (midazolam), midazolam, reversible inhibition.
The mark [9] stands for this setting: read-out: IC50 RI, CYP3A (nifedipine), nifedipine, reversible inhibition.
[10] abbreviates: read-out: IC50 RI, CYP3A (testosterone), testosterone, reversible inhibition.
[11] abbreviates: read-out: IC50 TDI, CYP3A (midazolam), midazolam, 30 min pre-incubation with NADPH generating system.
Where [12] appears, read: read-out: IC50 TDI, CYP3A (nifedipine), nifedipine, 30 min pre-incubation with NADPH generating system.
The mark [13] stands for this setting: read-out: IC50 TDI, CYP3A (testosterone), testosterone, 30 min pre-incubation with NADPH generating system.

As for gomisin A, the IC50 on CYP2C8 (30 min pre-incubation with NADPH generating system, listed as gomisin A, read-out: IC50 TDI, CYP2C8) is under 5 µM; at CYP2C8 (setting [1]) it was ≤ 5 µM and 2.8 µM; at CYP2C8 (reversible inhibition, listed as gomisin A, read-out: IC50 RI, CYP2C8), over 29 µM; on CYP2C8 (setting [2]), 29.3 µM; on UGT1A6, over 50 µM; on CYP2E1 (setting [3]), 15.6 µM. The half-maximal inhibitory concentration (IC50) at CYP2E1 (setting [4]) is over 50 µM; at CYP1A2 (setting [5]), over 50 µM; on CYP1A2 (setting [6]) it was 37.4 µM; at CYP3A (setting [7]), 1.3 to 4.5 µM; at CYP3A (read-out: IC50, time-dependent inhibition of CYP3A (across probe substrates), 30 min NADPH pre-incubation, probe substrate not singled out), under 5 µM; at CYP3A (setting [8]), 3.1 µM. Also, the IC50 on CYP3A (setting [9]) is 1.8 µM; at CYP3A (setting [10]), 2.3 µM; on CYP3A (setting [11]), 1.2 µM; on CYP3A (setting [12]), 0.77 µM; at CYP3A (setting [13]) it was 0.77 µM; on UGT1A3, over 50 µM. In addition, the concentration for half-maximal inhibition (IC50) at UGT1A9 was over 50 µM. The “IC50 Shift, CYP2C8” value at CYP2C8 is 10.5. Moreover, the “IC50 Shift, CYP2E1” value at CYP2E1 is listed as over 3.2. Also, the “IC50 Shift, CYP3A (midazolam)” value on CYP3A came out at 2.6. In addition, the “IC50 Shift, CYP3A (nifedipine)” value on CYP3A amounted to 2.3. In addition, on CYP3A, the “IC50 Shift, CYP3A (testosterone)” value was 3.0.
On to gomisin B, for which the IC50 is 4.9 µM at CYP2C8 (setting [1]); 16.5 µM at CYP2C8 (setting [2]); over 50 µM at UGT1A6; 20.6 µM on CYP2E1 (setting [3]); over 50 µM on CYP2E1 (setting [4]); over 50 µM at CYP1A2 (setting [5]). Further, the IC50 at CYP1A2 (setting [6]) was over 50 µM; at CYP3A (setting [7]), 0.28 to 0.42 µM; on CYP3A (setting [8]) it was 0.42 µM; at CYP3A (setting [9]), 0.32 µM; at CYP3A (setting [10]), 0.19 to 0.28 µM and 0.28 µM; at CYP3A (setting [11]), 0.12 µM. Besides, the IC50 was 0.1 µM at CYP3A (setting [12]), 0.09 µM at CYP3A (setting [13]), 16.5 µM on UGT1A3 and over 50 µM at UGT1A9. On CYP2C8, the “IC50 Shift, CYP2C8” value is 3.4. For the same substance, the “IC50 Shift, CYP2E1” value at CYP2E1 was over 2.4. In addition, the “IC50 Shift, CYP3A (midazolam)” value at CYP3A came to 3.5. For the same substance, the “IC50 Shift, CYP3A (nifedipine)” value at CYP3A was found to be 3.2. Also, the “IC50 Shift, CYP3A (testosterone)” value at CYP3A was found to be 3.1.

The values above are taken from paper PMC8000448, “Inhibitory Effects of Schisandra Lignans on Cytochrome P450s and Uridine 5′-Diphospho-Glucuronosyl Transferases in Human Liver Microsomes” (Pharmaceutics, 2021).
